Laboratory results published in article PMC8954350, “Non-Canonical Cannabinoid Receptors with Distinct Binding and Signaling Properties in Prostate and Other Cancer Cell Types Mediate Cell Death” (International Journal of Molecular Sciences, 2022).

Tested on: DU-145 cells
Assay: Mitochondrial membrane potential (JC-1 staining), DU-145 cells
Assay type: cell-based, human
Conditions: 10 μM, 24 h

SMILES: Cc1c(C(=O)NN2CCCCC2)nn(-c2ccc(Cl)cc2Cl)c1-c1ccc(I)cc1 [AM-251]
- mitochondrial membrane potential (MMP) depolarization: reduced MMP
